# Measured values from patent publication US8455439B2, “Antidotes for factor Xa inhibitors and methods of using the same in combination with blood coagulating agents” (Portola Pharmaceuticals, Inc., priority 2008, dated 2013).
# B1: r-Antidote: fXa derivative lacking amino acid residues 6-39 of SEQ ID NO. 3, S379A, expressed in CHO cells, linker removed (SEQ ID NO. 13) (protein)
# chain: ANSFLFWNKYKDGDQCETSPCQNQGKCKDGLGEYTCTCLEGFEGKNCELFTRKLCSLDNGDCDQFCHEEQNSVVCSCARGYTLADNGKACIPTGPYPCGKQTLERIVGGQECKDGECPWQALLINEENEGFCGGTILSEFYILTAAHCLYQAKRFKVRVGDRNTEQEEGGEAVHEVEVVIKHNRFTKETYDFDIAVLRLKTPITFRMNVAPACLPERDWAESTLMTQKTGIVSGFGRTHEKGRQSTRLKMLEVPYVDRNSCKLSSSFIITQNMFCAGYDTKQEDACQGDAGGPHVTRFKDTYFVTGIVSWGEGCARKGKYGIYTKVTAFLKWIDRSMKTRGLPKAKSHAPEVITSSPLK
# Tested on: human platelet poor plasma
# Assay: Clotting prolongation assay, 96-well plate format (OD405 turbidity change, aPTT reagent)
# Format: biochemical
# Conditions: for correction of the inhibitory effect of enoxaparin: FIG. 18
# Description: Two clotting assay formats were used to test the effects of factor Xa inhibitors and the antidote on clotting prolongation. In the first format, a 96-well plate was used to measure multiple samples at the same time. In the second assay format, aPTT was measured with a conventional coagulation instrument (MLA Electra 800 automatic coagulation timer).
# In the 96-well plate format method, human platelet poor plasma or platelet rich plasma was prepared similarly as procedures in Example 2. 75-100 μL plasma was recalcified with CaCl2, incubated at 37° C. for 3 minutes and clot formation was initiated by adding tissue factor (Innovin, Dade Behring) or an aPTT reagent (Actin FS, Dade Behring). Change of OD405 was monitored continuously by a plate reader (Molecular Devices). Clotting time was defined as the time (second) when the half maximal value of absorbance (0D405 nm) change was reached. Factor Xa inhibitor and antidote, when present, were pre-incubated with plasma at room temperature for 20 minutes before initiation of the reaction.
# In FIG. 18, the effect of r-Antidote to reverse the inhibitory effect of LMWH enoxaparin (Sanofi-Aventis) was tested by turbidity changes in human plasma. Enoxaparin (0-1.25 U/mL) was incubated at 22° C. for 20 min with or without 508 nM r-Antidote. Turbidity changes were measured according to procedures described in Example 3. 508 nM r-Antidote substantially corrected (>75%) the inhibitory effect of 0.3125-1.25 U/mL Enoxaparin.
# Turbidity change of human platelet poor plasma (PPP) with an aPTT reagent (Actin FS) was monitored according to procedure described in Example 3.
molecule,measurement,setting,value
B1,correction of the inhibitory effect of enoxaparin,"50 nM r-Antidote, 1.25 U/mL enoxaparin",> 75%
same,reversal of the anticoagulant effect of betrixaban,"125 nM r-Antidote, 125 nM betrixaban, FIG. 26",substantially reversed
same,"correction of the inhibitory effect of betrixaban, combination","170 nM fX + 125 nM r-Antidote, 125 nM betrixaban, FIG. 26",further corrected
same,correction of the inhibitory effect of enoxaparin,"508 nM r-Antidote, 0.3125-1.25 U/mL Enoxaparin",> 75%
